Source: article PMC12836348, “Alanine Mutagenesis Identifies Specific Amino Acids of Nemertide Alpha‑1 Activity and Its Binding to Target Receptors” (Journal of Natural Products, 2025)

Key:
Type in all cases: cell-based
Set-up in all cases: key: “+” means tested and produced effect; “–“ means tested but no effect
Conditions in all cases: S12A at 5 μM; Xenopus oocytes, n ≥ 3
Kv1.4 = experiment: Ion channel panel, Kv1.4
Description: (§1) To assess the concentration–response relationships, data were fitted with the Hill equation: y = 100/[1 + (EC50/[toxin])^ h ], where y is the amplitude of the toxin-induced effect (y = I 30 ms/I peak where I 30 ms is the current value at 30 ms in the presence of toxin and I peak is the peak current amplitude in control conditions), EC50 is the toxin concentration at half-maximal efficacy, [toxin] is the toxin concentration, and h is the Hill coefficient. Potassium and calcium currents were evoked by a 500 ms depolarization to the voltage corresponding to the maximal activation of the channels in control conditions from a holding potential of −90 mV. Elicited currents were sampled at 1 kHz and filtered at 0.5 kHz. […] ASIC1a currents were measured in ND96 solutions at a pH of 7.4 and 4.5, at a holding potential of −70 mV during 400 s, and the data were filtered at 20 Hz. EnaC currents were measured by clamping oocytes at a holding potential of −60 mV and perfusing with low- (1 mM) and high- (96 mM) sodium ND96. Opioid currents were measured by clamping the potential to −70 mV and changing the perfusion solution from ND96 to high-potassium (HK) solution composed of 96 mM KCl, 2 mM NaCl, 1 mM MgCl2, 1.8 mM CaCl2, and 5 mM HEPES, with a final pH of 7.5. […] TRPV1 and TRPA1 currents were continuously monitored in a perfusing ND96 solution, following a protocol at −90 mV for 400 s. […]

Kv3.1 = experiment: Ion channel panel, Kv3.1
Description: as §1

Kv1.6 = experiment: Ion channel panel, Kv1.6
Description: as §1

CC[C@H](C)[C@@H]1NC(=O)[C@@H](NC(=O)CN)CSSC[C@@H]2NC(=O)[C@@H]3CSSC[C@@H](C(=O)N[C@@H](CC(N)=O)C(=O)N4C[C@H](O)C[C@H]4C(=O)N4C[C@H](O)C[C@H]4C(=O)N[C@@H](CC(N)=O)C(=O)N[C@@H](CCC(N)=O)C(=O)O)NC(=O)[C@H](CCCCN)NC(=O)[C@H](Cc4ccccc4)NC(=O)[C@H](CC(N)=O)NC(=O)[C@H](Cc4c[nH]c5ccccc45)NC(=O)CNC(=O)[C@H](CSSC[C@H](NC(=O)[C@H](Cc4ccccc4)NC(=O)[C@H](CO)NC(=O)CNC(=O)[C@H]([C@@H](C)O)NC(=O)[C@H](C)NC1=O)C(=O)N[C@@H]([C@@H](C)O)C(=O)N[C@@H](CC(C)C)C(=O)N[C@@H](C)C(=O)N[C@@H](CCCCN)C(=O)NCC(=O)N3)NC(=O)[C@H](CC(N)=O)NC(=O)[C@H](CCCCN)NC(=O)[C@H]([C@@H](C)O)NC2=O [Peptide S12A]
–: effect on Kv1.4 (Kv1.4) | effect on Kv3.1 (Kv3.1) | effect on Kv1.6 (Kv1.6)
